From paper PMC8728441, “Biosynthesis of the redox cofactor mycofactocin is controlled by the transcriptional regulator MftR and induced by long-chain acyl-CoA species” (The Journal of Biological Chemistry, 2021)

Amino acid sequences for entries named in this document (tags omitted).
UniProt A0QSB5, entry or part of it: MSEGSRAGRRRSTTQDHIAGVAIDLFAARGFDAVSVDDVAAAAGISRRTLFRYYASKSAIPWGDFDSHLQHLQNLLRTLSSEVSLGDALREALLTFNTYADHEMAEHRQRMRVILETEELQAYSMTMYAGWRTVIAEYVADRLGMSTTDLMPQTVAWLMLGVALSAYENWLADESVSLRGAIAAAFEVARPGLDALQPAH

Biological target: MftR (WT) (Mycolicibacterium smegmatis, UniProt A0QSB5)
Experiment: ITC binding of acyl-CoAs to MftR
Design: species or system Mycobacterium smegmatis mc^2155
Description: ITC was performed using TA Nano ITC. MftR was loaded in the sample cell at the concentration of 16 and 250 μM acyl-CoAs (C12–C18) loaded in the syringe. To minimize the effect of buffer mismatch, the stock concentration of acyl-CoAs was prepared using ITC buffer (50 mM Hepes, 50 mM NaCl, and pH 7.5), and the pH was adjusted to within 0.05 units. In addition, MftR was buffer exchanged into ITC buffer using a PD-10 column (GE Life Sciences). The volume of the titrant added at each injection into the sample cell was 2.22 μl. The time interval between the successive injections was 180 s. The temperature of the cell was kept at 25 °C. The data obtained were fit by independent one-site model using NanoAnalyze Data Analysis, version 3.8.0, that was provided with the instrument.

CCCCCCCCCCCCCC(=O)SCCNC(=O)CCNC(=O)[C@H](O)C(C)(C)COP(=O)(O)OP(=O)(O)OC[C@H]1O[C@@H](n2cnc3c(N)ncnc32)[C@H](O)[C@@H]1OP(=O)(O)O [myristoyl-CoA]
Kd: 2 to 4 µM
